IC50 and Ki data for one compound are collected here from paper PMC12435400, “Thymidine Phosphorylase Inhibitory Potential and Molecular Docking Studies of Secondary Metabolites Isolated From Fernandoa adenophylla (Wall. ex G. Don) Steenis” (Chemistry & Biodiversity, 2025).

Amino acid sequences for entries named in this document (tags omitted). A change or cut given only in a name is not applied to a line headed by its entry.
UniProt P07650: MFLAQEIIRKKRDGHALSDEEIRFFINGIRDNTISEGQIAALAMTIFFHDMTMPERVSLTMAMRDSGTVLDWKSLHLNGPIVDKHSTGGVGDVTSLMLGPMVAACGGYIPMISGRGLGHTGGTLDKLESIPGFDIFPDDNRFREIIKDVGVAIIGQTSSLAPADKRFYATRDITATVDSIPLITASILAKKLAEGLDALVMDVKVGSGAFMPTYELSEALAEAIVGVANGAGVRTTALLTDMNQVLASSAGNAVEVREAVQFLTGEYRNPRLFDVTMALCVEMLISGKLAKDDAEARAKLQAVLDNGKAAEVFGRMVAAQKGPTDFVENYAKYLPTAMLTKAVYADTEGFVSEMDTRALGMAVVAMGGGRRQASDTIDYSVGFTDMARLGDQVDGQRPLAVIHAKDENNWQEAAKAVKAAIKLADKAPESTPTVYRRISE

Assay [1] addresses T1, recombinant EcTP enzyme (thymidine phosphorylase) (Escherichia coli, UniProt P07650).
T1 construct: purchased
In words: biochemical. Here is the method: (§1) In this study, we utilized commercially available recombinant EcTP enzyme as a model for TP inhibition assessment due to its structural similarities with mammalian TP enzymes. Spectrophotometric TP inhibition assays were conducted by incubating 0.058 U of EcTP enzyme with 500 µM of test compounds at 30°C for 10 min. Subsequently, 1.5 mM of thymidine substrate was added, and absorbance changes were monitored for 10 min at 290 nm using a microplate reader. […] Mechanistic studies involved incubating the TP enzyme with varying inhibitor concentrations and substrate concentrations ranging from 0.1875 to 1.5 µM. Enzyme activity was assessed by measuring absorbance changes for an additional 10 min. Triplicate experiments were conducted for mechanistic investigations to ensure the results' robustness.

In assay [2] the target is T2, thymidine phosphorylase (EcTP) (Escherichia coli, UniProt P07650).
T2 construct: purchased
In words: biochemical. The procedure: Mechanism‐based studies were carried out on the selected compounds, that is, 1, 2, and 5.
as §1
Chemical reactions were examined using kinetic studies to determine their rates, mode of inhibition, and the variables influencing these characteristics. The kind and mechanism of inhibition of derivatives are ascertained here. Test compounds (0.5–500 µM) were incubated with TP (0.058 U/200 µL) for 10 min at 30°C in mechanistic studies. […] Thymidine cleavage was tracked at 290 nm for ten min straight using an ELISA plate reader (SpectraMax 384; Molecular Devices, San Jose, CA, USA).

Broadly, the IC50 is the concentration needed to halve the response being measured. What is called Ki is the equilibrium dissociation constant of an inhibitor or competing ligand from its target. Read a high Ki as a looser hold on the target.

Regarding `O=c1[nH]c(=O)c2cc[nH]c2[nH]1` [7‐Deazaxanthine, reference compound], the IC50 in assay [1] worked out at 15.1 ± 0.1 µM. The compound further registered a Ki in assay [2] of 17.3 ± 0.001 µM.
